Source: PubChem BioAssay (Tox21)
Values joined by “and” are separate entries in the source; they are usually repeats but may differ in a detail not shown here. Equal entries are not always repeated. The list shows a part of the results, in another mix than the full data. Results filed as inconclusive are left out. Active and inactive are the calls of the source. Unless noted, the call rests on the fitted dose curve; in most records, active means well fitted curve in the direction sought with a large enough effect in the repeat runs; inconclusive means weak or mixed curves; inactive means no such curve, though single readings can be large; an effect the other way counts as inactive or inconclusive.

Amino acid sequences for entries named in this document (tags omitted).
UniProt P04150, whole entry: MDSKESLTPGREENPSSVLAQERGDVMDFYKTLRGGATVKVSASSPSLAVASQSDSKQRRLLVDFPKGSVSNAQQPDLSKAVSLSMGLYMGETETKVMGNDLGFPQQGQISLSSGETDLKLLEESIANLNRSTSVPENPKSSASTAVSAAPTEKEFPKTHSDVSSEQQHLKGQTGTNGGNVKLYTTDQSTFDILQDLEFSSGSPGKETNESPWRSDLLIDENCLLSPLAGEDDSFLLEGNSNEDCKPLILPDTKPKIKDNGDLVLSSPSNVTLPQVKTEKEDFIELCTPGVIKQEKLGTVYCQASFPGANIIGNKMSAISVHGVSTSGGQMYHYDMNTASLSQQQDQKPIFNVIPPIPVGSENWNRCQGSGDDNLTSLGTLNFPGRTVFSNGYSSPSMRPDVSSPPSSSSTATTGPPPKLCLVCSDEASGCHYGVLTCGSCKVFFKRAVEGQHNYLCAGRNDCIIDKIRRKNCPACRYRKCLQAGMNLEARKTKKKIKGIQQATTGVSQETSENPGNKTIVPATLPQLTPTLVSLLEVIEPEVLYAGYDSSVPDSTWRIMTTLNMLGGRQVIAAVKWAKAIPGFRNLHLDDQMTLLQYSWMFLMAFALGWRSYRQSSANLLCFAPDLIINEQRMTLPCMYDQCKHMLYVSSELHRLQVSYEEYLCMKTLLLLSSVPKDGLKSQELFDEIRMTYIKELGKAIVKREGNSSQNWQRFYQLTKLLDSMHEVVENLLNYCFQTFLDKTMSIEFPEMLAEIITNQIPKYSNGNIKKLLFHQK
UniProt P03372, whole entry: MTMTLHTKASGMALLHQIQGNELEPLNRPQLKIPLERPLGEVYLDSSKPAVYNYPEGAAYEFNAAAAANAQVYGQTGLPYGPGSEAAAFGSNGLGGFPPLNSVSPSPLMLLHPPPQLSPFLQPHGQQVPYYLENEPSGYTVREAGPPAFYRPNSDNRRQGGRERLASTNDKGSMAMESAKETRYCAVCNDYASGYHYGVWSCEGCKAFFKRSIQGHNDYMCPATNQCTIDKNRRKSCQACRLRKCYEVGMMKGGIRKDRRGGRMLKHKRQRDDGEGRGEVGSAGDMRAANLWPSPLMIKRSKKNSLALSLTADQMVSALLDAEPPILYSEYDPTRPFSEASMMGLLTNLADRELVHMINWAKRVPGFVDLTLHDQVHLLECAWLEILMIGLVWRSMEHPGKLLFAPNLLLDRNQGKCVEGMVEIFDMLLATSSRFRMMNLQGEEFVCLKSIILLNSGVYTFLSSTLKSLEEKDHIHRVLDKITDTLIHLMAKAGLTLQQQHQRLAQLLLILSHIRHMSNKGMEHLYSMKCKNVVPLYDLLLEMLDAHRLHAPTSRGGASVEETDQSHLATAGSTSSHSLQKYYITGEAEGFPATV

Key:
[1] = qHTS assay to test for compound auto fluorescence at 535 nm (green) in HEK293 cells (AID 720680); settings: green autofluorescence 485/535 nm, at 91.3 µM (top of the series)
[2] = qHTS assay to test for compound auto fluorescence at 460 nm (blue) in HEK293 cell free culture (AID 720681); settings: cell-free medium, autofluorescence 405/460 nm (blue); at 91.3 µM (top of the series)
How it was run: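 Compounds were added to cell-free DMEM with 10% FBS and fluorescence read directly. The blue channel used 405 nm excitation and 460 nm emission, with triamterene as the reference fluorophore.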

[3] = qHTS assay to test for compound auto fluorescence at 535 nm (green) in HEK293 cell free culture (AID 720682); settings: cell-free medium, green autofluorescence 485/535 nm; at 91.3 µM (top of the series); hits give high values
How it was run: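 Read-out: 485/535 nm fluorescence intensity, calibrated against fluorescein. Medium only (DMEM + 10% FBS, no cells); test compound or DMSO vehicle added by pintool before plate reading.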

[4] = qHTS assay to test for compound auto fluorescence at 590 nm (red) in HEK293 cell free culture (AID 720683); settings: cell-free medium autofluorescence, Ex540/Em590 red; at 91.3 µM (top of the series)
How it was run: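 Cell-free wells of DMEM with 10% FBS received compound, and intrinsic fluorescence was read at excitation/emission 540/590 nm. Values expressed as equivalence to Rose Bengal sodium.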

[5] = qHTS assay to test for compound auto fluorescence at 590 nm (red) in HepG2 cell free culture (AID 720684); settings: cell-free medium autofluorescence, red 540/590 nm; at 91.3 µM (top of the series)
How it was run: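 Compounds are added to culture medium (MEM, 10% FBS) lacking cells, then fluorescence is read at excitation 540 nm, emission 590 nm, with Rose Bengal sodium as the equivalency standard.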

[6] = qHTS assay to test for compound auto fluorescence at 460 nm (blue) in HepG2 cell free culture (AID 720685); settings: Cell-free culture medium, blue autofluorescence 405/460 nm; at 91.3 µM (top of the series)
How it was run: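 Compound (23 nL) or DMSO pinned into cell-free MEM with 10% FBS; blue fluorescence read at 405/460 nm excitation/emission, expressed as auto-fluorescence equivalency to triamterene.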

[7] = qHTS assay to test for compound auto fluorescence at 535 nm (green) in HepG2 cell free culture (AID 720686); settings: Cell-free medium, green autofluorescence 485/535 nm; at 91.3 µM (top of the series)
[8] = qHTS assay to test for compound auto fluorescence at 460 nm (blue) in HepG2 cells (AID 720687); settings: autofluorescence 405/460 nm, 1 h, at 91.3 µM (top of the series)
How it was run: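 HepG2 cells in MEM with 10% FBS, attached overnight at 37 C, were exposed to compound or DMSO for 1 hr at 37 C, 5% CO2. Blue fluorescence was read at 405/460 nm, with triamterene as reference fluorophore.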

[9] = qHTS assay to identify small molecule antagonists of the glucocorticoid receptor (GR) signaling pathway - cell viability counter screen (AID 720693); settings: GR-bla HeLa viability, CellTiter-Glo luminescence, 18 h, with 5 nM dexamethasone present; further: nearly all actives have a fitted effect of over 55% in size
From the text: (§1) National Center for Advancing Translational Sciences [NCATS]
(§2) NIH Chemical Genomics Center [NCGC]
(§3) U.S. Environmental Protection Agency [EPA]
(§4) National Institutes of Environmental Health Sciences [NIEHS]
(§5) National Toxicology Program [NTP]
(§6) U.S. Food and Drug Administration [FDA]
The Glucocorticoid receptor (GR) is one of the members of the nuclear receptor family of ligand-dependent transcription factors. GR plays a critical role in carbohydrate, protein and lipid metabolisms and programmed cell death. CellSensor GR-bla HeLa cell line (Invitrogen) contains a beta-lactamase reporter gene under the control of the glucocorticoid response element stably integrated into HeLa cells, a cervical cancer cell line that expresses glucocorticoid receptor. The activation of the reporter gene under culture conditions can be detected by fluorescence intensity. This cell line has been used to screen the Tox21 10K compound library and to identify the compounds that inhibit the GR signaling. The cytotoxicity of the Tox21 compound library against the GR-bla HeLa cell line was tested in parallel by measuring the cell viability using CellTiter-Glo assay in the same wells.
(§7) Tox21 Assay Protocol Summary:
The GR-bla HeLa cells were dispensed at 1500 cells/5 ul/well in 1536-well black wall/clear bottom plates using a Multidrop Combi (ThermoFisher Scientific, Waltham, MA) dispenser. After the assay plates were incubated at a 37 C/5% CO2 incubator for 4 hours, 23 nL of compounds dissolved in DMSO, positive controls or DMSO only was transferred to the assay plate by a pintool station (Kalypsys, San Diego, CA), followed by addition of 1 uL of dexamethasone (5 nM, final concentration in the well). The plates were incubated at 37 C for 18 hours. After 1 uL of LiveBLAzerTM B/G FRET substrate was added using a Flying Reagent Dispenser (Aurora Discovery, San Diego, CA), the plates were incubated at room temperature (RT) for 2 hours, and fluorescence intensity was measured by an Envision plate reader (PerkinElmer, Shelton, CT). After measurement of bla assay, 3 ul CellTiter-Glo (Promega, Madison, WI) was added to measure the cytotoxicity and the plates were then incubated at RT for 30 min. The luminescence was measured using a ViewLux (Perkin Elmer) plate reader.

[10] = qHTS assay for identifying genotoxic compounds that show differential cytotoxicity against isogenic chicken DT40 cell lines with known DNA damage response pathways - wild type cell line (AID 743012); settings: DT40 wild type chicken cells viability, CellTiter-Glo, 40 h; further: nearly all actives have a fitted effect of over 60% in size
How it was run: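 Using parental DT40 (300 cells/well), compounds delivered in DMSO incubate 40 h at 37 C/5% CO2. CellTiter-Glo reagent then stands 30 min at room temperature, and luminescence gives cell viability.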

[11] = qHTS assay for identifying genotoxic compounds that show differential cytotoxicity against isogenic chicken DT40 cell lines with known DNA damage response pathways - Rev3 mutant cell line (AID 743014); settings: chicken DT40 Rev3-/- viability, CellTiter-Glo, 40 h; series mostly up to 68.4 µM; further: nearly all actives have a fitted effect of over 55% in size
From the text: as §1, §2, §3, §4, §5, §6
DNA repair pathways play a critical role in cellular homeostasis by repairing DNA damage induced by endogenous processes and xenobiotics. Isogenic chicken DT40 cell lines deficient in different DNA repair pathways can be used to identify genotoxic compounds and aid in characterizing the nature of the DNA damage induced. Two DNA repair-deficient cell lines with disrupted genes, Rad54/Ku70 or Rev3, were used to screen the Tox21 10K compound library. Possible genotoxicity was based on the presence of a significant increase in cytotoxicity in one or more of the DNA repair-deficient cell lines compared to that observed in the parental DNA repair-proficient cell line. CellTiter Glo viability assay (Promega, Madison, WI) was used to measure cell viability in these cells after compound treatment. This assay includes the data from the Rev3 mutant cell line.
as §7
300 DT40 mutant cells in 5 uL/well were dispensed into white, solid-bottom 1536-well plates using a Multidrop Combi (ThermoFisher Scientific, Waltham, MA) dispenser. After the assay plates were incubated at 37 C/5% CO2 for approximately 0.5 hour, 23 nL of compounds dissolved in DMSO, positive controls or DMSO only was transferred into the assay plate by a pintool work station (Kalypsys, San Diego, CA). The assay plates were incubated at 37 C/5% CO2 for 40 hours. After 5 uL per well of CellTiter-Glo reagent was added into each well of the assay plates, the plates were incubated for 30 min at room temperature and the luminescence intensity of the plates was measured using a ViewLux (PerkinElmer, Shelton, CT) plate reader.

[12] = qHTS assay for identifying genotoxic compounds that show differential cytotoxicity against isogenic chicken DT40 cell lines with known DNA damage response pathways - Rad54/Ku70 mutant cell line (AID 743015); settings: DT40 Rad54/Ku70 mutant viability, CellTiter-Glo, 40 h; series mostly up to 66.8 µM; further: nearly all actives have a fitted effect of over 60% in size
[13] = qHTS assay to identify small molecule antagonists of the androgen receptor (AR) signaling pathway - cell viability counter screen (AID 743033; further: nearly all actives have a fitted effect of over 45% in size); settings: AR-bla HEK293 viability, CellTiter-Glo luminescence, 16 h
[14] = qHTS assay to identify small molecule antagonists of the androgen receptor (AR) signaling pathway using the MDA cell line - cell viability counter screen (AID 743041; further: nearly all actives have a fitted effect of over 45% in size); settings: MDA-kb2 viability, CellTiter-Fluor, 16 h, cells co-treated with R1881 androgen agonist
How it was run: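 Same-well cytotoxicity was assessed by CellTiter-Fluor in MDA-kb2 AR-luc cells after 16 h of compound treatment under R1881 agonism.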

[15] = qHTS assay to identify small molecule antagonists of the thyroid receptor (TR) signaling pathway - cell viability counter screen (AID 743064); settings: GH3.TRE-Luc viability, CellTiter-Fluor, 24 h; further: nearly all actives have a fitted effect of over 50% in size
How it was run: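 GH3.TRE-Luc rat pituitary cells carrying a TRE-luciferase reporter were treated with compound plus 1 nM T3 (final) for 23.5 h at 37 °C. Viability was then read in the same wells by CellTiter-Fluor fluorescence after a further 30 min.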

[16] = qHTS assay to identify small molecule antagonists of the thyroid receptor (TR) signaling pathway (AID 743065); settings: GH3.TRE-Luc, T3-stimulated luciferase inhibition, 23.5 h; series mostly up to 70.3 µM; further: nearly all actives have a fitted effect of over 55% in size
How it was run: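 GH3.TRE-Luc rat pituitary cells (two TREs driving luciferase) were dosed with compound, then stimulated with 1 nM T3 (final) for 23.5 h at 37 C. ONE-Glo luminescence was the read-out, with CellTiter-Fluor fluorescence as the cytotoxicity counter-screen.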

[17] = tested on: thyroid hormone receptor (rat, GH3 cells); assay: qHTS assay to identify small molecule agonists of the thyroid receptor (TR) signaling pathway (AID 743066; calls by dose curve); settings: GH3.TRE-Luc cells, TR agonist luciferase, 24 h
[18] = molecular target: Glucocorticoid receptor (Homo sapiens) (UniProt P04150); assay: qHTS assay to identify small molecule agonists of the glucocorticoid receptor (GR) signaling pathway (AID 720691; active means well fitted activation curve with a large enough effect in the signal ratio in the repeat runs, not every such curve was filed as active; the % refers to the signal ratio); settings: GR-bla HeLa, beta-lactamase reporter ratio, 18 h
[19] = molecular target: Glucocorticoid receptor (Homo sapiens) (UniProt P04150); assay: qHTS assay to identify small molecule antagonists of the glucocorticoid receptor (GR) signaling pathway (AID 720692; active means well fitted inhibition curve with a large enough effect in the signal ratio in the repeat runs, not every such curve was filed as active; the % refers to the signal ratio); settings: GR-bla HeLa, beta-lactamase FRET ratio, dexamethasone-stimulated, 18 h; series mostly up to 58.5 µM
[20] = molecular target: Estrogen receptor (Homo sapiens) (UniProt P03372); assay: qHTS assay to identify small molecule antagonists of the estrogen receptor alpha (ER-alpha) signaling pathway (AID 743069; active means well fitted curve in the direction sought with a large enough effect in the signal ratio in the repeat runs, not every such curve was filed as active; the % refers to the signal ratio); settings: HEK293 ER-alpha-UAS-bla, beta-lactamase ratio, antagonist mode; at 79.1 µM (top of the series)
How it was run: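 Reporter cells (ER-alpha-bla, HEK293 background) are conditioned overnight in stripped-serum medium (2% charcoal-stripped FBS). Compound and 17beta-estradiol exposure runs 18 hr at 37C, 5% CO2.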
On the % scale 0 is the no-effect control and ±100 the full control effect.

CCOP(=O)(Cl)Cl
inactive: fluorescence, % of fluorescein [1] 0.0542% and -0.0516% | fluorescence, % of fluorescent control [2] 0.057% and -0.124% | activity change [3] 0.0784% and -0.0016% | fluorescence, % of fluorescent control [4] 0.252% and 0.15% | fluorescence, % of Rose Bengal [5] 0.0607% and 0.039% | fluorescence, % of fluorescent control [6] -0.168% and -0.0933% | fluorescence, % of fluorescein control [7] 0.0038% and 0.0324% | fluorescence, % of fluorescent control [8] 0.0124% and -0.0551% | viability change, negative = cytotoxic ([9]; at 58.5 µM (top of the series)) -11% and -0.197% | activity change, negative = cytotoxicity ([10]; at 68.4 µM (top of the series)) -8.72% and 12% | Potency [11] | Potency [12] | activity change, negative = cytotoxicity ([13]; at 58.5 µM (top of the series)) 5.5% and 3.6% | viability change, negative = cytotoxic ([14]; at 70.3 µM (top of the series)) 2.44% and 13.7% | activity change, negative = cytotoxic ([15]; at 70.3 µM (top of the series)) 16.5% and 10.6% | Potency [16] | activation ([17]; at 83.9 µM (top of the series)) 0.858% and 0.39%

ClCCOP(OCCCl)OCCCl
inactive: fluorescence, % of fluorescein [1] -0.0704% and 0.0087% | fluorescence, % of fluorescent control [2] -0.352% and -0.0885% | activity change [3] -0.0874% and 0.0022% | fluorescence, % of fluorescent control [4] -0.0875% and -0.0628% | fluorescence, % of Rose Bengal [5] 0.261% and -0.115% | fluorescence, % of fluorescent control [6] 0.0106% and -0.0488% | fluorescence, % of fluorescein control [7] -0.126% and 0.0807% | fluorescence, % of fluorescent control [8] -0.238% and -0.0037% | activation ([18]; at 62.4 µM (top of the series)) -1.98% | activation ([18]; at 79.2 µM (top of the series)) 2.43% | Potency [19] | viability change, negative = cytotoxic ([9]; at 58.5 µM (top of the series)) -0.135% | viability change, negative = cytotoxic ([9]; at 78.9 µM (top of the series)) -1.77% | activity change, negative = cytotoxicity ([10]; at 68.4 µM (top of the series)) 2.67% | activity change, negative = cytotoxicity ([10]; at 95 µM (top of the series)) -19.6% | Potency [11] | Potency [12] | activity change, negative = cytotoxicity ([13]; at 58.5 µM (top of the series)) 3.88% | activity change, negative = cytotoxicity ([13]; at 78.9 µM (top of the series)) -0.721% | viability change, negative = cytotoxic ([14]; at 70.3 µM (top of the series)) -5.98% | viability change, negative = cytotoxic ([14]; at 95 µM (top of the series)) -1.1% | activity change, negative = cytotoxic ([15]; at 70.3 µM (top of the series)) -9.86% | activity change, negative = cytotoxic ([15]; at 95 µM (top of the series)) -18.3% | Potency [16] | activation ([17]; at 83.9 µM (top of the series)) 7.56% | activation ([17]; at 95.2 µM (top of the series)) -0.811% | activity, negative = inhibition [20] -7.75%
